29 compounds from patent EP4563146A1 (IRBM S.P.A., priority 2023, dated 2025) can be followed below.

Structures are written as SMILES.

The first assay concerns the target DEN2V NS2B-G4SG4-NS3 serine protease (Dengue virus type 2, UniProt Q91H74). Description: DEN2V protease inhibition assay.
Conditions: not given
`COc1ncc(-c2ccc(C[n+]3cc([N-]C(=O)Nc4cc(NS(=O)(=O)CC5CCCCC5)cc(C(F)(F)F)c4)on3)cc2)c(C)n1` [Example 2, ((3-((Cyclohexylmethyl)sulfonamido)-5-(trifluoromethyl)phenyl)carbamoyl)(3-(4-(2-methoxy-4-methylpyrimidin-5-yl)benzyl)-1,2,3-oxadiazol-3-ium-5-yl)amide] yielded an IC50 of 100 to 1000 nM.

Consider `Cn1cncc1-c1ccc(C[n+]2cc([N-]C(=O)Nc3cc(NC(=O)Cc4ccccc4)cc(C(F)(F)F)c3)on2)nc1` [Example 6, (3-((5-(1-Methyl-1H-imidazol-5-yl)pyridin-2-yl)methyl)-1,2,3-oxadiazol-3-ium-5-yl)((3-(2-phenylacetamido)-5-(trifluoromethyl)phenyl)carbamoyl)amide], for which the IC50 was below 100 nM. With `O=C(Cc1ccccc1)Nc1cc(NC(=O)[N-]c2c[n+](Cc3ccc(Br)cn3)no2)cc(C(F)(F)F)c1` [Example 12, (3-((5-Bromopyridin-2-yl)methyl)-1,2,3-oxadiazol-3-ium-5-yl)((3-(2-phenylacetamido)-5-(trifluoromethyl)phenyl)carbamoyl)amide], the IC50 is below 100 nM. Turning to `COc1ccc(CC(=O)Nc2cc(NC(=O)[N-]c3c[n+](Cc4ccc(-c5cnc(OC)nc5C)cc4)no3)cc(C(F)(F)F)c2)cc1` [Example 16, (3-(4-(2-Methoxy-4-methylpyrimidin-5-yl)benzyl)-1,2,3-oxadiazol-3-ium-5-yl)((3-(2-(4-methoxyphenyl)acetamido)-5-(trifluoromethyl)phenyl)carbamoyl)amide], the IC50 is 100 to 1000 nM.

In the case of `COc1ncc(-c2ccc(C[n+]3cc([N-]C(=O)Nc4cc(NC(=O)Cc5cccnc5)cc(C(F)(F)F)c4)on3)cc2)c(C)n1` [Example 19, (3-(4-(2-Methoxy-4-methylpyrimidin-5-yl)benzyl)-1,2,3-oxadiazol-3-ium-5-yl)((3-(2-(pyridin-3-yl)acetamido)-5-(trifluoromethyl)phenyl)carbamoyl)amide], the IC50 was below 100 nM. For `COc1ncc(-c2ccc(C[n+]3cc([N-]C(=O)Nc4cc(NC(=O)Cc5ccccc5Cl)cc(C(F)(F)F)c4)on3)cc2)c(C)n1` [Example 21, ((3-(2-(2-Chlorophenyl)acetamido)-5-(trifluoromethyl)phenyl)carbamoyl)(3-(4-(2-methoxy-4-methylpyrimidin-5-yl)benzyl)-1,2,3-oxadiazol-3-ium-5-yl)amide], the IC50 is below 100 nM.

Compound `Cc1noc(C)c1-c1ccc([C@@H](CN)[n+]2cc([N-]C(=O)Nc3cc(NC(=O)Cc4ccccc4)cc(C(F)(F)F)c3)on2)cc1` [Example 24, (S)-(3-(2-Amino-1-(4-(3,5-dimethylisoxazol-4-yl)phenyl)ethyl)-1,2,3-oxadiazol-3-ium-5-yl)((3-(2-phenylacetamido)-5-(trifluoromethyl)phenyl)carbamoyl)amide] had an IC50 below 100 nM. `NCc1ccc(CC(=O)Nc2cc(NC(=O)[N-]c3c[n+](Cc4ccccn4)no3)cc(C(F)(F)F)c2)cc1` [Example 27, ((3-(2-(4-(Aminomethyl)phenyl)acetamido)-5-(trifluoromethyl)phenyl)carbamoyl)(3-(pyridin-2-ylmethyl)-1,2,3-oxadiazol-3-ium-5-yl)amide] came in with an IC50 of 1000 to 20000 nM. Same read-out and setting: next, `O=C([N-]c1c[n+](Cc2ccccn2)no1)Nc1cc(NC(=O)c2ccc3[nH]cnc3c2)cc(C(F)(F)F)c1` [Example 29, ((3-(1H Benzo[d]imidazole-5-carboxamido)-5-(trifluoromethyl)phenyl)-carbamoyl)(3-(pyridin-2-ylmethyl)-1,2,3-oxadiazol-3-ium-5-yl)amide]: 1000 to 20000 nM. Same read-out and setting: next, `O=C([N-]c1c[n+](Cc2ccccn2)no1)Nc1cc(NC(=O)C2CCCc3cn[nH]c32)cc(C(F)(F)F)c1` (centres unmarked) [Example 38, (3-(Pyridin-2-ylmethyl)-1,2,3-oxadiazol-3-ium-5-yl)((3-(4,5,6,7-tetrahydro-1H-indazole-7-carboxamido)-5-(trifluoromethyl)phenyl)carbamoyl)amide]: 100 to 1000 nM; `Cc1nc(CC(=O)Nc2cc(NC(=O)[N-]c3c[n+](Cc4ccccn4)no3)cc(C(F)(F)F)c2)cs1` [Example 41, ((3-(2-(2-Methylthiazol-4-yl)acetamido)-5-(trifluoromethyl)phenyl)-carbamoyl)(3-(pyridin-2-ylmethyl)-1,2,3-oxadiazol-3-ium-5-yl)amide]: 100 to 1000 nM.

The assay is the same for the next values; noted with them: read-out: Dengue 2 - NS3 protease.
For `COc1ncc(-c2ccc(C[n+]3cc([N-]C(=O)Nc4cc(NC(=O)c5ccccc5)cc(C(F)(F)F)c4)on3)cc2)c(C)n1` [Example 15], the IC50 was below 100 nM. Same read-out and setting: under `COc1ncc(-c2ccc(C[n+]3cc([N-]C(=O)Nc4cc(NC(=O)Cc5ccc(Cl)cc5)cc(C(F)(F)F)c4)on3)cc2)c(C)n1` [Example 17] stands below 100 nM; under `COc1ncc(-c2ccc(C[n+]3cc([N-]C(=O)Nc4cc(NC(=O)Cc5noc6ccccc56)cc(C(F)(F)F)c4)on3)cc2)c(C)n1` [Example 20], below 100 nM; under `COc1ncc(-c2ccc(C[n+]3cc([N-]C(=O)Nc4cc(NC(=O)Cc5ccc(CN)cc5)cc(C(F)(F)F)c4)on3)cc2)c(C)n1` [Example 22], 100 to 1000 nM. Consider `O=C([N-]c1c[n+](Cc2ccccn2)no1)Nc1cc(NC(=O)c2ccc(CN3CCOCC3)o2)cc(C(F)(F)F)c1` [Example 30], for which the IC50 was in the range of 1000 to 20000 nM. For the compound `O=C([N-]c1c[n+](Cc2ccccn2)no1)Nc1cc(NC(=O)c2cccc(Oc3ccccc3)c2)cc(C(F)(F)F)c1` [Example 31], the IC50 lay within 1000 to 20000 nM. In the case of `Cc1oc(-c2ccccc2)nc1CC(=O)Nc1cc(NC(=O)[N-]c2c[n+](Cc3ccccn3)no2)cc(C(F)(F)F)c1` [Example 33], the IC50 was above 20000 nM. On the same count and under the same terms, under `O=C([N-]c1c[n+](Cc2ccccn2)no1)Nc1cc(NC(=O)c2cnn(Cc3ccccc3)c2)cc(C(F)(F)F)c1` [Example 35] stands 1000 to 20000 nM; under `N#Cc1ccc2nc(C(=O)Nc3cc(NC(=O)[N-]c4c[n+](Cc5ccccn5)no4)cc(C(F)(F)F)c3)cn2c1` [Example 37], 1000 to 20000 nM; under `CN1Cc2cc(C(=O)Nc3cc(NC(=O)[N-]c4c[n+](Cc5ccccn5)no4)cc(C(F)(F)F)c3)sc2C1` [Example 39], 1000 to 20000 nM.

As for `Cn1ccc(CC(=O)Nc2cc(NC(=O)[N-]c3c[n+](Cc4ccccn4)no3)cc(C(F)(F)F)c2)n1` [Example 40], the IC50 was 100 to 1000 nM.

`Nc1ccc(CC(=O)Nc2cc(NC(=O)[N-]c3c[n+](Cc4ccccn4)no3)cc(C(F)(F)F)c2)cn1` [Example 42]: the IC50 fell in the range of 100 to 1000 nM.

On to `O=C(CS(=O)(=O)c1ccccc1)Nc1cc(NC(=O)[N-]c2c[n+](Cc3ccccn3)no2)cc(C(F)(F)F)c1` [Example 43], for which the IC50 fell in the range of 100 to 1000 nM. Same read-out and setting: under `O=C([N-]c1c[n+](Cc2ccccn2)no1)Nc1cc(NC(=O)c2ccon2)cc(C(F)(F)F)c1` [Example 44] stands 1000 to 20000 nM; under `O=C([N-]c1c[n+](Cc2ccccn2)no1)Nc1cc(NC(=O)c2cnccn2)cc(C(F)(F)F)c1` [Example 45], 1000 to 20000 nM. As to `O=C(C#Cc1ccccc1)Nc1cc(NC(=O)[N-]c2c[n+](Cc3ccccn3)no2)cc(C(F)(F)F)c1` [Example 46], the IC50 lay within 100 to 1000 nM. The same measure, in the same setting: next, `O=C([N-]c1c[n+](Cc2ccccn2)no1)Nc1cc(NC(=O)C2Cc3ccccc32)cc(C(F)(F)F)c1` (centres unmarked) [Example 47]: 100 to 1000 nM; `CC(C)n1ccc(C(=O)Nc2cc(NC(=O)[N-]c3c[n+](Cc4ccccn4)no3)cc(C(F)(F)F)c2)n1` [Example 48]: 1000 to 20000 nM.
